Literature values, collected in patent US8200327B2.
Only a part of the results on these compounds is given; other tests are left out.

Settings: for lag time (time required to achieve peak plasma levels): electrotransport delivery

## CCC(=O)N(c1ccccc1)C1CCN(CCc2ccccc2)CC1
  lag time (time required to achieve peak plasma levels): 1.5 h

## CCC(=O)N(c1ccccc1)C1(COC)CCN(CCc2cccs2)CC1
  lag time (time required to achieve peak plasma levels): 1.5 h
Simple diffusion, citrate buffer at pH 5
  plasma concentration: did not produce any detectable plasma concentration
